Results as given in patent US10322118B2, “Compounds and methods for inhibiting Cif virulence factor” (priority 2012, dated 2019).

Tested on: thyroid hormone receptor
Assay: Thyroid hormone activity assay in GH3.TRE-Luc cells
Assay type: cell-based
Conditions: screen of compounds with different R5 groups

CCC(=O)Nc1cc(Br)c(Oc2ccc(O)c(C(C)C)c2)c(Br)c1
thyroid hormone activity: lowest thyroid hormone activity
